As a reminder, the ΔTm is the shift of the melting midpoint relative to a reference.

By UniProt entry, the sequences of proteins in these tests, tags left out. Where a name states a change or a piece, a line headed by the entry shows the natural chain unless it says otherwise.
UniProt P51449: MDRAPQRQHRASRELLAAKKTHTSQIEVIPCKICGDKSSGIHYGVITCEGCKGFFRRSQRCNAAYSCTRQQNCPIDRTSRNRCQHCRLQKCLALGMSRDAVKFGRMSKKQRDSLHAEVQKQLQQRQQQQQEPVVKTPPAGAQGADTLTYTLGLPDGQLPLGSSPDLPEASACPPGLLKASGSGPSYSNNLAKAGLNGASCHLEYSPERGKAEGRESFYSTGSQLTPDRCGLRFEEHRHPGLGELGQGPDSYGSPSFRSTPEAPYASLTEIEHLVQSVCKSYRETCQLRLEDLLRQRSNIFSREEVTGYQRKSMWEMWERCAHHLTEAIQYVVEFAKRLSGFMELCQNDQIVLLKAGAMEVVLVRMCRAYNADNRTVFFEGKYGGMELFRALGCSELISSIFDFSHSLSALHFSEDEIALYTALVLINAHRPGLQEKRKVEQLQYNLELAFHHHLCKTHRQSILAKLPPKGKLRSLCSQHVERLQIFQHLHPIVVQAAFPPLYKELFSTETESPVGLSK

For assay [1], the target named is T1, Nuclear receptor ROR-gamma (Homo sapiens, UniProt P51449). The assay can be described thus: Orthosteric agonist activity at 2-chloro-N-(2,6-dimethylphenyl)-5-nitrobenzamide-ligated recombinant human N-terminal His6-tagged RORgammat ligand binding domain (265 to 518 residues) expressed in Escherichia coli BL21 (DE3) assessed as increase in coactivator, N-terminal biotinylated SRC-1 box2 peptide recruitment in presence of 2-chloro-N-(2,6-dimethylphenyl)-5-nitrobenzamide incubated for 60 mins by TR-FRET assay. The essentials: (§1)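 Dose response: probe and His6-RORγt LBD (265-518, 20 μM) co-titrated (1.4x series, top 10 eq, 200 μM) in pH 5.8 TRIS/NaCl/CHAPS/BSA buffer overnight (4°C or RT per compound). Then 100 nM LBD, 100 nM biotin-SRC-1 box2, Tb anti-His, d2-streptavidin in HEPES pH 7.5, 150 mM NaCl, 5 mM DTT, 0.1% BSA, 0.1 mM CHAPS, 1% DMSO; top probe 1 μM; 60 min RT; 665/620 nm ratio; four-parameter fit; triplicate, ≥2 experiments.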
In general terms: In TR-FRET formats the signal depends on donor and acceptor labels being close together.

Assay [2] addresses T1, Nuclear receptor ROR-gamma. In words: Orthosteric agonist activity at 2-chloro-5-nitro-N-o-tolylbenzamide-ligated recombinant human N-terminal His6-tagged RORgammat ligand binding domain (265 to 518 residues) expressed in Escherichia coli BL21 (DE3) assessed as increase in coactivator, N-terminal biotinylated SRC-1 box2 peptide recruitment in presence of 2-chloro-5-nitro-N-o-tolylbenzamide incubated for 60 mins by TR-FRET assay. The method in brief:
as §1

The target in assay [3] is T1, Nuclear receptor ROR-gamma. In words: Orthosteric agonist activity at 2-chloro-5-nitro-N-(2-(trifluoromethyl)phenyl)benzamide-ligated recombinant human N-terminal His6-tagged RORgammat ligand binding domain (265 to 518 residues) expressed in Escherichia coli BL21 (DE3) assessed as increase in coactivator, N-terminal biotinylated SRC-1 box2 peptide recruitment in presence of 2-chloro-5-nitro-N-(2-(trifluoromethyl)phenyl)benzamide incubated for 60 mins by TR-FRET assay. The method in brief:
as §1

Assay [4] addresses T1, Nuclear receptor ROR-gamma. Particulars: filed as agonist, dose 10.0 µM.
In assay [5] the target is T1, Nuclear receptor ROR-gamma. The assay can be described thus: Orthosteric agonist activity at GW9662-ligated recombinant human N-terminal His6-tagged RORgammat ligand binding domain (265 to 518 residues) expressed in Escherichia coli BL21 (DE3) assessed as increase in coactivator, N-terminal biotinylated SRC-1 box2 peptide recruitment in presence of GW9662 incubated for 60 mins by TR-FRET assay. The essentials: as §1

Active and inactive are the calls of the source. The calls are words filed in the database; no cut-off is given here.

As for `CC(C)=CCC[C@@H](C)[C@H]1CC[C@H]2[C@@H]3CC=C4C[C@@H](O)CC[C@]4(C)[C@H]3CC[C@]12C`, the result in assay [1], in assay [2], in assay [3] and in assay [5] was inactive. The ΔTm in assay [4] was -1.5 °C.

For `CC(C)CCC[C@](C)(O)[C@H]1CC[C@H]2[C@@H]3CC=C4C[C@@H](O)CC[C@]4(C)[C@H]3CC[C@@]21C`, the result in assay [1], in assay [2], in assay [3] and in assay [5] was inactive.

The record behind these values is ChEMBL document CHEMBL4706717, “Covalent Occlusion of the RORγt Ligand Binding Pocket Allows Unambiguous Targeting of an Allosteric Site” (ACS Med Chem Lett, 2021).
